Values quoted from earlier work, collected in patent US11730740B2, “Laureth-4 containing topical formulations” (ARCUTIS BIOTHERAPEUTICS, INC., priority 2020, dated 2023).

Details: 10% w/w surfactant in white petrolatum with 10% salicylic acid and 10% DMSO; 5.0 grams on 6.4×12.7 cm^2 skin; 8 hr

Substance: polyoxyl 8 stearate
- percutaneous absorption of salicylic acid: increased significantly
